Assay results published in US6696431B2, “26,27-homologated-20-EPI-2-alkylidene-19-nor-vitamin D compounds” (Wisconsin Alumni Research Foundation, priority 1997, dated 2004).

Test system: HL-60 cells
Assay: Differentiation of HL-60 promyelocytes to monocytes (NBT reduction)
Format: cell-based
Details: ratio of analog ED50 to ED50 for 1α,25-(OH)2D3
Experimental: The differentiation of HL-60 promyelocytic into monocytes was determined as described by Ostrem et al (J. Biol. Chem. 262, 14164-14171, 1987).
The differentiation of HL-60 promyleocytic into monocytes was determined as described by Ostrem et al (J. Biol. Chem. 262, 14164-14171, 1987).

## C=C1/C(=C\C=C2/CCC[C@]3(C)[C@@H]([C@H](C)CCCC(C)(C)O)CC[C@@H]23)C[C@@H](O)C[C@@H]1O [1,25-(OH)2D3, 1α,25-dihydroxyvitamin D3, reference compound]
  HL-60 Differentiation Activity ratio: 1
